Experimental data from PubChem BioAssay AID2544 (Sanford-Burnham Center for Chemical Genomics, 2010).
This is a selection; strong and weak results do not stand in their true shares. Some salts and complexes are drawn in separate pieces, as the source files them; their charges need not balance. Calls of active or inactive are those of the source.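 How the source made its calls: active means inhibition reaching a set limit with compound at 10 µM in the primary screen (cut at about 35% in these data); inactive means the rest.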

The chains behind the UniProt entries cited, without tags or fusion partners.
UniProt P09923, whole entry: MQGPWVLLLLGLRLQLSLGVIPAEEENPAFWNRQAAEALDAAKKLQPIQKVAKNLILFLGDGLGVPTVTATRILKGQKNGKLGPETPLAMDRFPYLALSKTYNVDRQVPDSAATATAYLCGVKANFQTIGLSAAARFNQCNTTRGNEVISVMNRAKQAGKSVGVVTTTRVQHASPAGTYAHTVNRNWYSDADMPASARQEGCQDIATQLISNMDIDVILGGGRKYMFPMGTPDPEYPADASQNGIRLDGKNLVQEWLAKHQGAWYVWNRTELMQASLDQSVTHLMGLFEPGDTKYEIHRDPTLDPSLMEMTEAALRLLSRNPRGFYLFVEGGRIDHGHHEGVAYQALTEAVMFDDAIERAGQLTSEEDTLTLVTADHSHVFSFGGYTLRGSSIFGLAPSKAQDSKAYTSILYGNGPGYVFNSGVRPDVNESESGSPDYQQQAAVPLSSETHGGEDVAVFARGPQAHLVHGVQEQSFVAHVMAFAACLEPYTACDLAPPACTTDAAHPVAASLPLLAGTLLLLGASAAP

The compounds below were run against Intestinal-type alkaline phosphatase (Homo sapiens) (UniProt P09923) (assay: blockers of intestinal alkaline phosphatase activity – biochemical, luminescence, uHTS, primary screen (AID 2544;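 further: plate controls were DMSO wells with enzyme for no effect and no-enzyme buffer wells for full effect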)). Conditions: purified IAP, CDP-Star luminescence, 30 min; at 10 µM; active compounds read high.

Compound	inhibition
CP(=S)(Nn1cnnc1)Oc1ccccc1 (stereo unspecified)	inactive: 10.1%
COc1ccccc1OP(C)(=O)Nc1ccccc1 (stereo unspecified)	inactive: -13.6%
CP(=O)(Nc1ccccc1Br)Oc1ccccc1 (stereo unspecified)	inactive: 8.8%
Cc1cccc(C)c1OP(C)(=O)Nc1ccc(SC(F)(F)F)cc1 (stereo unspecified)	inactive: 5.3%
CP(=O)(Nc1ccc(SC(F)(F)F)cc1)Oc1ccc(Cl)cc1 (stereo unspecified)	inactive: -8%
CP(=O)(Oc1ccccc1)OC(c1ccccc1)C(F)(F)F (stereo unspecified)	inactive: 3.2%
CP(=O)(NC(=O)Nc1ccccc1)Oc1ccccc1 (stereo unspecified)	inactive: -11.5%
CCc1ccc(OP(C)(=O)N2CCN(c3ccc([N+](=O)[O-])cc3)CC2)cc1 (stereo unspecified)	inactive: 2.2%
Cc1cc(C)cc(OP(C)(=O)Nc2ccc(SC(F)(F)F)cc2)c1 (stereo unspecified)	inactive: 14.6%
CCOP(C)(=S)SCC(=O)NC(C)C(=O)O (stereo unspecified)	inactive: -8.9%
CCOC(=O)c1ccc(NP(C)(=O)Oc2ccc(OC)cc2)cc1 (stereo unspecified)	inactive: -8%
O=[N+]([O-])c1cc([N+](=O)[O-])c(O)c([N+](=O)[O-])c1.c1ccc(Oc2ccncc2)cc1	inactive: -7.6%
CP(=O)(Nc1ccccn1)Oc1ccc(Cl)cc1 (stereo unspecified)	inactive: -13.1%
CCN(CC)CCCOC(=O)C(O)(c1ccccc1)c1ccccc1	inactive: -3.3%
O=[N+]([O-])c1cc([N+](=O)[O-])c(Nc2cccnc2)c([N+](=O)[O-])c1	inactive: 25.7%
CC(C)(C)c1ccc(OP(C)(=O)Nc2ccc(SC(F)(F)F)cc2)cc1 (stereo unspecified)	inactive: -2.7%
Cc1cccc(C)c1OP(C)(N)=O (stereo unspecified)	inactive: -5.3%
CCOC(=O)c1ccc(NP(C)(=O)Oc2ccccc2)cc1 (stereo unspecified)	inactive: 4.9%
COc1ccccc1OP(C)(=O)Nc1ccc(C)cc1 (stereo unspecified)	inactive: -1.5%

Compound	inhibition
Cc1ccc(NP(C)(=O)Oc2ccccc2)c(C)c1 (stereo unspecified)	inactive: 3.8%
COc1ccccc1OP(C)(=O)Nc1cc(Cl)ccc1C (stereo unspecified)	inactive: -8.8%
COc1ccc(OP(C)(=O)Nc2cccc(F)c2)cc1 (stereo unspecified)	inactive: 1%
Cc1cc(C)cc(OP(C)(N)=O)c1 (stereo unspecified)	inactive: -30.4%
O=C(O)c1cccc(Nc2c([N+](=O)[O-])cc([N+](=O)[O-])cc2[N+](=O)[O-])c1	inactive: 15.3%
CC1=NCCc2c1[nH]c1ccccc21.O=[N+]([O-])c1cc([N+](=O)[O-])c(O)c([N+](=O)[O-])c1	inactive: 13.1%
COc1ccccc1OP(C)(=O)Nc1cccc(Br)c1 (stereo unspecified)	inactive: 12.1%
Cc1cc(C)cc(OP(C)(=O)Nc2ccc(C)cc2C)c1 (stereo unspecified)	inactive: -9%
CCOC(=O)c1ccc(NP(C)(=O)Oc2cc(C)cc(C)c2)cc1 (stereo unspecified)	inactive: 4%
Cc1cc(C)cc(OP(C)(=O)Nc2ccccn2)c1 (stereo unspecified)	inactive: 7.3%
CP(=O)(Nc1cccc(Br)c1)Oc1ccccc1 (stereo unspecified)	inactive: 10.3%
Cc1ccc(C)c(NP(C)(=O)Oc2ccccc2)c1 (stereo unspecified)	inactive: -6.6%
O=[N+]([O-])c1cc([N+](=O)[O-])c(-n2nnc3ccccc32)c([N+](=O)[O-])c1	inactive: 6.6%
O=[N+]([O-])c1cc([N+](=O)[O-])c(-c2cnn(-c3ccccc3)c2)c([N+](=O)[O-])c1	inactive: 8.1%
Cc1nc2ccc3ccccc3c2s1.O=[N+]([O-])c1cc([N+](=O)[O-])c(O)c([N+](=O)[O-])c1	inactive: 0.8%
CC1=C2N=C(C=C3N=C(C(C)=C4[N-][C@@](C)([C@@H]5N=C1[C@](C)(CCC(=O)NC[C@@H](C)OP(=O)([O-])O[C@H]1[C@@H](O)[C@@H](n6cnc7cc(C)c(C)cc76)O[C@@H]1CO)[C@H]5CC(N)=O)[C@@](C)(CC(N)=O)[C@@H]4CCC(N)=O)[C@@](C)(CC(N)=O)[C@@H]3CCC(N)=O)C(C)(C)[C@@H]2CCC(N)=O.[C-]#N.[Co+3]	inactive: 20.2%
O=[N+]([O-])c1cc([N+](=O)[O-])c(Nc2nnnn2CCO)c([N+](=O)[O-])c1	inactive: 22.9%
CCOC(=O)C(CC)C1=NC(C)(C)Cc2ccccc21.O=[N+]([O-])c1cc([N+](=O)[O-])c(O)c([N+](=O)[O-])c1 (stereo unspecified)	inactive: 9.8%
COc1ccccc1OP(C)(=O)Nc1c(C)cccc1C (stereo unspecified)	inactive: -3.1%

Compound	inhibition
CN1CCCCC1COC(=O)C1(O)c2ccccc2CCc2ccccc21 (stereo unspecified)	inactive: -70.1%
CCCOc1ccc(NP(C)(=O)Oc2ccc(Cl)cc2)cc1 (stereo unspecified)	inactive: 1.8%
CP(=O)(Nc1ccc(SC(F)(F)F)cc1)Oc1ccccc1 (stereo unspecified)	inactive: 13.4%
COc1ccc(OP(C)(=O)Nc2cccc(Br)c2)cc1 (stereo unspecified)	inactive: -2.9%
COc1ccc(NP(C)(=O)Oc2ccccc2OC)cc1 (stereo unspecified)	inactive: -14.3%
CN(C)CCOC(=O)C(O)(c1ccccc1)C1CCCCC1 (stereo unspecified)	inactive: -0.3%
O=[N+]([O-])c1cc([N+](=O)[O-])c(NCC2CCS(=O)(=O)C2)c([N+](=O)[O-])c1 (stereo unspecified)	inactive: -15.1%
CP(=O)(Nc1ccc(SC(F)(F)F)cc1)Oc1ccc(F)cc1 (stereo unspecified)	inactive: 1.8%
CCOP(C)(=S)SCC(=O)NC(C)(CC)C(=O)O (stereo unspecified)	inactive: 3.8%
CP(=O)(Nc1ccc2c(c1)OCCO2)Oc1ccccc1 (stereo unspecified)	inactive: -2.9%
Cc1ccccc1NP(C)(=O)Nc1ccccc1C	inactive: -20.7%
CC(C)c1ccc(OP(C)(=O)Nc2ccc(SC(F)(F)F)cc2)cc1 (stereo unspecified)	inactive: -15.2%
CP(=O)(Nc1ccccc1F)Oc1ccccc1 (stereo unspecified)	inactive: 16.1%
O=C(OCCN1CCN(CCOCc2ccccc2)CC1)C(O)(c1ccccc1)c1ccccc1	inactive: -8%
O=C(OC1CN2CCC1CC2)c1ccc([N+](=O)[O-])cc1 (stereo unspecified)	inactive: -19.1%
COc1ccc2c(c1O)-c1c(O)c(OC)cc3c1[C@H](C2)[N+](C)(C)CC3.O=[N+]([O-])c1cc([N+](=O)[O-])c([O-])c([N+](=O)[O-])c1[O-]	inactive: 15.6%
COc1ccc(OP(C)(=O)Nc2ccc(SC(F)(F)F)cc2)cc1 (stereo unspecified)	inactive: -3.7%
CCOC(=O)c1ccc(NP(C)(=O)Oc2ccc(F)cc2)cc1 (stereo unspecified)	inactive: 6.7%
